# Laboratory results taken from US10335367B2, “Use of selected anticholinergic zwitterions” (Bodor Laboratories, Inc., priority 2015, dated 2019).
# “And” between values parts separate entries of the source, which are not always exact repeats. Equal entries are not always repeated.
# Test system: human eyes
# Assay: Mydriatic study of (2R)SGA & Tropicamide in human eyes (topical, pupil diameter)
# Type: in vivo
# Details: 1%; for AUC0-168 of % change in pupil size / % Change in pupil size / % dilation (% Change in pupil size) / Pupil Size / Pupil Size -Control: 0.1 ml
compound,measurement,setting,value
C[N+]1(CC(=O)[O-])CCC(OC(=O)[C@](O)(c2ccccc2)C2CCCC2)C1 (some centres unmarked),Time to Emax,0.1 ml in each eye,3 h
same,"Emax, % (maximum mydriatic effect, % change in pupil size)","0.1 ml in each eye, mean of 2 subjects",125.0%
same,AUC0-168 of % change in pupil size,"Mean, Subjects 1 & 2",7436.5
same,% Change in pupil size,"Mean, Subjects 1 & 2, 0 hr",0.0%
same,% Change in pupil size,"Mean, Subjects 1 & 2, 0.25 hr",25.0%
same,% Change in pupil size,"Mean, Subjects 1 & 2, 0.5 hr",70.8%
same,% Change in pupil size,"Mean, Subjects 1 & 2, 0.75 hr",95.8%
same,% Change in pupil size,"Mean, Subjects 1 & 2, 1 hr",108.3%
same,% Change in pupil size,"Mean, Subjects 1 & 2, 1.5 hr",108.3%
same,% Change in pupil size,"Mean, Subjects 1 & 2, 2 hr",112.5%
same,% Change in pupil size,"Mean, Subjects 1 & 2, 3 hr",125.0%
same,% Change in pupil size,"Mean, Subjects 1 & 2, 4 hr",120.8%
same,% Change in pupil size,"Mean, Subjects 1 & 2, 5 hr",114.6%
same,% Change in pupil size,"Mean, Subjects 1 & 2, 6 hr",114.6%
same,% Change in pupil size,"Mean, Subjects 1 & 2, 7 hr",106.3%
same,% Change in pupil size,"Mean, Subjects 1 & 2, 8 hr",106.3%
same,% Change in pupil size,"Mean, Subjects 1 & 2, 12 hr",100.0%
same,% Change in pupil size,"Mean, Subjects 1 & 2, 24 hr",83.3%
same,% Change in pupil size,"Mean, Subjects 1 & 2, 36 hr",66.7%
same,% Change in pupil size,"Mean, Subjects 1 & 2, 48 hr",56.3%
same,% Change in pupil size,"Mean, Subjects 1 & 2, 72 hr",45.8%
same,% Change in pupil size,"Mean, Subjects 1 & 2, 96 hr",29.2%
same,% Change in pupil size,"Mean, Subjects 1 & 2, 120 hr",20.8%
same,% Change in pupil size,"Mean, Subjects 1 & 2, 144 hr",14.6%
same,% Change in pupil size,"Mean, Subjects 1 & 2, 168 hr",8.3%
same,AUC0-168 of % change in pupil size,Subject 1 Left Eye,10157.3
same,% dilation (% Change in pupil size),"Subject 1 Left Eye, 0 hr",0%
same,Pupil Size,"Subject 1 Left Eye, 0 hr",3 mm
same,Pupil Size -Control,"Subject 1 Left Eye, 0 hr",0
same,% dilation (% Change in pupil size),"Subject 1 Left Eye, 0.25 hr",17% and 16.7%
same,Pupil Size,"Subject 1 Left Eye, 0.25 hr",3.5 mm
same,Pupil Size -Control,"Subject 1 Left Eye, 0.25 hr",0.5
same,% dilation (% Change in pupil size),"Subject 1 Left Eye, 0.5 hr",33% and 33.3%
same,Pupil Size,"Subject 1 Left Eye, 0.5 hr",4 mm
same,Pupil Size -Control,"Subject 1 Left Eye, 0.5 hr",1
same,% dilation (% Change in pupil size),"Subject 1 Left Eye, 0.75 hr",83% and 83.3%
same,Pupil Size,"Subject 1 Left Eye, 0.75 hr",5.5 mm
same,Pupil Size -Control,"Subject 1 Left Eye, 0.75 hr",2.5
same,% dilation (% Change in pupil size),"Subject 1 Left Eye, 1 hr",108% and 108.3%
same,Pupil Size,"Subject 1 Left Eye, 1 hr",6.25 mm
same,Pupil Size -Control,"Subject 1 Left Eye, 1 hr",3.25
same,% dilation (% Change in pupil size),"Subject 1 Left Eye, 1.5 hr",108% and 108.3%
same,Pupil Size,"Subject 1 Left Eye, 1.5 hr",6.25 mm
same,Pupil Size -Control,"Subject 1 Left Eye, 1.5 hr",3.25
same,% dilation (% Change in pupil size),"Subject 1 Left Eye, 2 hr",117% and 116.7%
same,Pupil Size,"Subject 1 Left Eye, 2 hr",6.5 mm
same,Pupil Size -Control,"Subject 1 Left Eye, 2 hr",3.5
same,% dilation (% Change in pupil size),"Subject 1 Left Eye, 3 hr",133% and 133.3%
same,Pupil Size,"Subject 1 Left Eye, 3 hr",7 mm
same,Pupil Size -Control,"Subject 1 Left Eye, 3 hr",4
same,% dilation (% Change in pupil size),"Subject 1 Left Eye, 4 hr",125%
same,Pupil Size,"Subject 1 Left Eye, 4 hr",6.75 mm
same,Pupil Size -Control,"Subject 1 Left Eye, 4 hr",3.75
same,% dilation (% Change in pupil size),"Subject 1 Left Eye, 5 hr",117% and 116.7%
same,Pupil Size,"Subject 1 Left Eye, 5 hr",6.5 mm
same,Pupil Size -Control,"Subject 1 Left Eye, 5 hr",3.5
same,% dilation (% Change in pupil size),"Subject 1 Left Eye, 6 hr",117% and 116.7%
same,Pupil Size,"Subject 1 Left Eye, 6 hr",6.5 mm
same,Pupil Size -Control,"Subject 1 Left Eye, 6 hr",3.5
same,% dilation (% Change in pupil size),"Subject 1 Left Eye, 7 hr",100%
same,Pupil Size,"Subject 1 Left Eye, 7 hr",6 mm
same,Pupil Size -Control,"Subject 1 Left Eye, 7 hr",3
same,% dilation (% Change in pupil size),"Subject 1 Left Eye, 8 hr",100%
same,Pupil Size,"Subject 1 Left Eye, 8 hr",6 mm
same,Pupil Size -Control,"Subject 1 Left Eye, 8 hr",3
same,% dilation (% Change in pupil size),"Subject 1 Left Eye, 12 hr",100%
same,Pupil Size,"Subject 1 Left Eye, 12 hr",6 mm
same,Pupil Size -Control,"Subject 1 Left Eye, 12 hr",3
same,% dilation (% Change in pupil size),"Subject 1 Left Eye, 24 hr",100%
same,Pupil Size,"Subject 1 Left Eye, 24 hr",6 mm
same,Pupil Size -Control,"Subject 1 Left Eye, 24 hr",3
same,% dilation (% Change in pupil size),"Subject 1 Left Eye, 36 hr",100%
same,Pupil Size,"Subject 1 Left Eye, 36 hr",6 mm
same,Pupil Size -Control,"Subject 1 Left Eye, 36 hr",3
same,% dilation (% Change in pupil size),"Subject 1 Left Eye, 48 hr",83% and 83.3%
same,Pupil Size,"Subject 1 Left Eye, 48 hr",5.5 mm
same,Pupil Size -Control,"Subject 1 Left Eye, 48 hr",2.5
same,% dilation (% Change in pupil size),"Subject 1 Left Eye, 72 hr",67% and 66.7%
same,Pupil Size,"Subject 1 Left Eye, 72 hr",5 mm
same,Pupil Size -Control,"Subject 1 Left Eye, 72 hr",2
same,% dilation (% Change in pupil size),"Subject 1 Left Eye, 96 hr",50%
same,Pupil Size,"Subject 1 Left Eye, 96 hr",4.5 mm
same,Pupil Size -Control,"Subject 1 Left Eye, 96 hr",1.5
same,% dilation (% Change in pupil size),"Subject 1 Left Eye, 120 hr",33% and 33.3%
same,Pupil Size,"Subject 1 Left Eye, 120 hr",4 mm
same,Pupil Size -Control,"Subject 1 Left Eye, 120 hr",1
same,% dilation (% Change in pupil size),"Subject 1 Left Eye, 144 hr",25%
same,Pupil Size,"Subject 1 Left Eye, 144 hr",3.75 mm
same,Pupil Size -Control,"Subject 1 Left Eye, 144 hr",0.75
same,% dilation (% Change in pupil size),"Subject 1 Left Eye, 168 hr",17% and 16.7%
same,Pupil Size,"Subject 1 Left Eye, 168 hr",3.5 mm
same,Pupil Size -Control,"Subject 1 Left Eye, 168 hr",0.5
same,AUC0-168 of % change in pupil size,Subject 1 Right eye,11707.3
same,% dilation (% Change in pupil size),"Subject 1 Right eye, 0 hr",0%
same,Pupil Size,"Subject 1 Right eye, 0 hr",3 mm
same,Pupil Size -Control,"Subject 1 Right eye, 0 hr",0
same,% dilation (% Change in pupil size),"Subject 1 Right eye, 0.25 hr",17% and 16.7%
same,Pupil Size,"Subject 1 Right eye, 0.25 hr",3.5 mm
same,Pupil Size -Control,"Subject 1 Right eye, 0.25 hr",0.5
same,% dilation (% Change in pupil size),"Subject 1 Right eye, 0.5 hr",33% and 33.3%
same,Pupil Size,"Subject 1 Right eye, 0.5 hr",4 mm
same,Pupil Size -Control,"Subject 1 Right eye, 0.5 hr",1
same,% dilation (% Change in pupil size),"Subject 1 Right eye, 0.75 hr",83% and 83.3%
same,Pupil Size,"Subject 1 Right eye, 0.75 hr",5.5 mm
same,Pupil Size -Control,"Subject 1 Right eye, 0.75 hr",2.5
same,% dilation (% Change in pupil size),"Subject 1 Right eye, 1 hr",108% and 108.3%
same,Pupil Size,"Subject 1 Right eye, 1 hr",6.25 mm
same,Pupil Size -Control,"Subject 1 Right eye, 1 hr",3.25
same,% dilation (% Change in pupil size),"Subject 1 Right eye, 1.5 hr",108% and 108.3%
same,Pupil Size,"Subject 1 Right eye, 1.5 hr",6.25 mm
same,Pupil Size -Control,"Subject 1 Right eye, 1.5 hr",3.25
same,% dilation (% Change in pupil size),"Subject 1 Right eye, 2 hr",117% and 116.7%
same,Pupil Size,"Subject 1 Right eye, 2 hr",6.5 mm
same,Pupil Size -Control,"Subject 1 Right eye, 2 hr",3.5
same,% dilation (% Change in pupil size),"Subject 1 Right eye, 3 hr",133% and 133.3%
same,Pupil Size,"Subject 1 Right eye, 3 hr",7 mm
same,Pupil Size -Control,"Subject 1 Right eye, 3 hr",4
same,% dilation (% Change in pupil size),"Subject 1 Right eye, 4 hr",125%
same,Pupil Size,"Subject 1 Right eye, 4 hr",6.75 mm
same,Pupil Size -Control,"Subject 1 Right eye, 4 hr",3.75
same,% dilation (% Change in pupil size),"Subject 1 Right eye, 5 hr",117% and 116.7%
same,Pupil Size,"Subject 1 Right eye, 5 hr",6.5 mm
same,Pupil Size -Control,"Subject 1 Right eye, 5 hr",3.5
same,% dilation (% Change in pupil size),"Subject 1 Right eye, 6 hr",117% and 116.7%
same,Pupil Size,"Subject 1 Right eye, 6 hr",6.5 mm
same,Pupil Size -Control,"Subject 1 Right eye, 6 hr",3.5
same,% dilation (% Change in pupil size),"Subject 1 Right eye, 7 hr",100%
same,Pupil Size,"Subject 1 Right eye, 7 hr",6 mm
same,Pupil Size -Control,"Subject 1 Right eye, 7 hr",3
same,% dilation (% Change in pupil size),"Subject 1 Right eye, 8 hr",100%
same,Pupil Size,"Subject 1 Right eye, 8 hr",6 mm
same,Pupil Size -Control,"Subject 1 Right eye, 8 hr",3
same,% dilation (% Change in pupil size),"Subject 1 Right eye, 12 hr",100%
same,Pupil Size,"Subject 1 Right eye, 12 hr",6 mm
same,Pupil Size -Control,"Subject 1 Right eye, 12 hr",3
same,% dilation (% Change in pupil size),"Subject 1 Right eye, 24 hr",100%
same,Pupil Size,"Subject 1 Right eye, 24 hr",6 mm
same,Pupil Size -Control,"Subject 1 Right eye, 24 hr",3
same,% dilation (% Change in pupil size),"Subject 1 Right eye, 36 hr",100%
same,Pupil Size,"Subject 1 Right eye, 36 hr",6 mm
same,Pupil Size -Control,"Subject 1 Right eye, 36 hr",3
same,% dilation (% Change in pupil size),"Subject 1 Right eye, 48 hr",92% and 91.7%
same,Pupil Size,"Subject 1 Right eye, 48 hr",5.75 mm
same,Pupil Size -Control,"Subject 1 Right eye, 48 hr",2.75
same,% dilation (% Change in pupil size),"Subject 1 Right eye, 72 hr",83% and 83.3%
same,Pupil Size,"Subject 1 Right eye, 72 hr",5.5 mm
same,Pupil Size -Control,"Subject 1 Right eye, 72 hr",2.5
same,% dilation (% Change in pupil size),"Subject 1 Right eye, 96 hr",67% and 66.7%
same,Pupil Size,"Subject 1 Right eye, 96 hr",5 mm
